Laboratory results published in PubChem BioAssay AID2313 (Broad Institute, 2010).
Only a part is listed here, and it is no random draw. Some salts and complexes are drawn in separate pieces, as the source files them; their charges need not balance. Active and inactive are the calls of the source.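 Rule for the calls: active = mean inhibition across valid replicates above about 65% (limit read from the data); inconclusive = mean under the limit, yet half or more replicates past it; inactive = the rest.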

Assay: Shh-driven Gli reporter inhibition – luminescence, Shh-LIGHT2 cells, Gli-luciferase, primary screen (AID 2313);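 note: pathway switched on by Shh-conditioned medium diluted 1 in 25 in low serum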
Conditions: 30 h, active compounds read high

Compound	inhibition
C/C1=C2N=C(/C=C3N=C(/C(C)=C4\[N-][C@@](C)([C@@H]5N=C1[C@](C)(CCC(=O)NCC(C)OP(=O)(O)O[C@@H]1[C@H](O)[C@H](n6cnc7cc(C)c(C)cc76)O[C@H]1CO)[C@H]5CC(N)=O)[C@@](C)(CC(N)=O)[C@@H]4CCC(N)=O)[C@@](C)(CC(N)=O)[C@@H]\3CCC(N)=O)C(C)(C)[C@@H]/2CCC(N)=O.[C-]#N.[Co+3] (some centres undefined)	inactive: 5.61%
O=C(OC1CN2CCC1CC2)c1ccc(Cl)cc1 (centres undefined)	inactive: 22.6%
Cc1ccc(C(=O)OC2CN3CCC2CC3)cc1 (centres undefined)	inactive: 14%
COc1cc2c(cc1NP(C)(=O)Oc1ccccc1)oc1ccccc12 (centres undefined)	inactive: -12.6%
